Test [1] deals with LOVO xenograft (colorectal cancer). Conditions: mouse, in vivo.
Test [2] deals with PC3 xenograft (prostate). Conditions: mouse, in vivo.
The test system of test [3] is REC-1 xenograft (mantle cell lymphoma). Conditions: mouse, in vivo.
The test system of test [4] is IGROV-1. Kind of test: Tumor cell proliferation, IGROV-1 (crystal violet). Type of test: cell-based. The note with it: Homo sapiens, 96 h; IGROV-1, Ovarian; 4 days; read-out: in vitro (IC50, nM), inhibition of tumor cell proliferation.
Test [5] relates to A2780 xenograft (ovarian). The note with it: mouse, in vivo.

For the compound `C[C@@H]1COCCN1c1cc(-c2ccnn2C)c2ccnc(-c3ccn[nH]3)c2n1` [Compound A, 2-[(3R)-3-methylmorpholin-4-yl]-4-(1-methyl-1H-pyrazol-5-yl)-8-(1H-pyrazol-5-yl)-1,7-naphthyridine], the “anti-tumor efficacy upon monotherapy treatment (outcome in words)” value is “stable disease” in test [1], “stable disease” in test [2], “complete tumor remission” in test [3] and “stable disease” in test [5]. Moreover, in test [4], the IC50 worked out at 96 nM.

For the origin of these results see US11976334B2, “Inhibitor of ATR kinase for use in a method of treating a hyper-proliferative disease” (Bayer Aktiengesellschaft, priority 2017, dated 2024).
